Test results reported in patent US20050158775A1, “Novel plamid DNA comprising reoprter gene DNA and use of the same” (priority 1997, published 2005).

The chains behind the UniProt entries cited, without tags or fusion partners. Residues count along the entry.
UniProt P37231, 204-505, stated change not applied: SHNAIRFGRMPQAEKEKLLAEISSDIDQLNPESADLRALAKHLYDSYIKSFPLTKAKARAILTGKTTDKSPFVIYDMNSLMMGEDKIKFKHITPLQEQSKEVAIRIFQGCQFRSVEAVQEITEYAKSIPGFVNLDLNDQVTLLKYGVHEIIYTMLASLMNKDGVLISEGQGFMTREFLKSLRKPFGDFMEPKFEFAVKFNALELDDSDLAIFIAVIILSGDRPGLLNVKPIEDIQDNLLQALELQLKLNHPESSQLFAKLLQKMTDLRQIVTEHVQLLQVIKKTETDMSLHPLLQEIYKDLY

How the values were obtained:
[1] = biological target: Gal4-human PPAR γ chimeric receptor protein (Homo sapiens, UniProt P37231)
[2] = biological target: T1, Gal4-human PPAR δ chimeric receptor protein (Homo sapiens, UniProt Q03181); format: cell-based
T1 construct: the 139th serine (Ser) to the 441st tyrosine (Tyr) of the human PPAR δ receptor; expressed in transfected cells
T1 sequence (Q03181 139-441): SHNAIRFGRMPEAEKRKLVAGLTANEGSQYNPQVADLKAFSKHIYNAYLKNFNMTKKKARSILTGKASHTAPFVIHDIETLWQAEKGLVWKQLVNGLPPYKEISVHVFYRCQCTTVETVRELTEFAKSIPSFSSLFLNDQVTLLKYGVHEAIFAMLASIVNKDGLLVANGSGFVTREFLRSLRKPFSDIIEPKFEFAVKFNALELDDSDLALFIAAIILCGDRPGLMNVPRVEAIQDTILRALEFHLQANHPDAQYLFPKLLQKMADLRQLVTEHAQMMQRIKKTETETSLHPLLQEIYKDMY

[3] = biological target: T2, Gal4-human PPAR α chimeric receptor protein (Homo sapiens, UniProt Q07869); format: cell-based
T2 construct: the 167th serine (Ser) to the 468th tyrosine (Tyr) of the human PPAR α receptor; expressed in transfected cells
T2 sequence (Q07869 167-468): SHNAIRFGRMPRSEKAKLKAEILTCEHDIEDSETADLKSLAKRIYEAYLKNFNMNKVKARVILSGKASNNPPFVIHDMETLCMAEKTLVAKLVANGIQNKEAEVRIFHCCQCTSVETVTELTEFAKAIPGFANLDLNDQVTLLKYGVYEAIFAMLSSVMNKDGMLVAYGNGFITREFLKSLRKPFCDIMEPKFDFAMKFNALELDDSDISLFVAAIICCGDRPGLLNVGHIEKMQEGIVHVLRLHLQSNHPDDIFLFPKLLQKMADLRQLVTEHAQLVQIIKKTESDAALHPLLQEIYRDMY

## CCCCC[C@H](O)/C=C/[C@@H]1[C@H]2C/C(=C/CCCC(=O)O)C[C@H]2C[C@H]1O [carbacyclin]
[1]
  cell death of PPAR γ ligand-responsive cells: do not cause cell death
[2]
  cell death of PPAR δ ligand-responsive cells: cause dose-dependent cell death
[3]
  cell death of PPAR α ligand-responsive cells: cause dose-dependent cell death
